Reference: patent publication US20090131468A1, “Bis-(Sulfonylamino) Derivatives in Therapy 065” (AstraZeneca AB, priority 2007, published 2009)

Sequences of proteins named here, by UniProt entry; tags and fusion partners are left off.
UniProt O14684, whole entry: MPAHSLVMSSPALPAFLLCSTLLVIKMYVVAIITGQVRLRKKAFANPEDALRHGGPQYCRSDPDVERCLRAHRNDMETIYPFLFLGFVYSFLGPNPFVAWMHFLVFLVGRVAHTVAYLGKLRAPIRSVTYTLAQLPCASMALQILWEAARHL

Target: human mPGES-1 (Homo sapiens, UniProt O14684)
Assay: Microsomal prostaglandin E synthase biochemical assay
Conditions: microsome preparation containing human mPGES-1; PGH2 10.8 μM, GSH 2.5 mM, pH 6.8; PGE2 quantified by HTRF; average of at least n=2

IC50: 140 nM
SMILES: Cc1nc(-c2ccc3c(c2)CCO3)sc1C(=O)NS(=O)(=O)c1ccccc1S(N)(=O)=O
